Active and inactive are the calls of the source. No cut-off for these calls is given here.

Results on 4 molecules are retold here after ChEMBL document CHEMBL5550090, “Synthesis and biological evaluation of 1H-pyrrolo[3,2-g]isoquinolines” (Bioorg Med Chem, 2024).

Test [1] can be described thus: Selectivity index, ratio of IC50 for recombinant rat DYRK1A kinase domain (1 to 499 residues) expressed in bacteria to IC50 for recombinant human Haspin kinase domain (470 to 798 residues) expressed in bacteria.
The species entered for another test is Homo sapiens. Kind of test: Selectivity index, ratio of IC50 for human recombinant PIM-1 expressed in bacteria to IC50 for recombinant human Haspin kinase domain (470 to 798 residues) expressed in bacteria.
Test [2] has as its target T1, Serine/threonine-protein kinase haspin (Homo sapiens) (UniProt Q8TF76).
T1 sequence (whole entry): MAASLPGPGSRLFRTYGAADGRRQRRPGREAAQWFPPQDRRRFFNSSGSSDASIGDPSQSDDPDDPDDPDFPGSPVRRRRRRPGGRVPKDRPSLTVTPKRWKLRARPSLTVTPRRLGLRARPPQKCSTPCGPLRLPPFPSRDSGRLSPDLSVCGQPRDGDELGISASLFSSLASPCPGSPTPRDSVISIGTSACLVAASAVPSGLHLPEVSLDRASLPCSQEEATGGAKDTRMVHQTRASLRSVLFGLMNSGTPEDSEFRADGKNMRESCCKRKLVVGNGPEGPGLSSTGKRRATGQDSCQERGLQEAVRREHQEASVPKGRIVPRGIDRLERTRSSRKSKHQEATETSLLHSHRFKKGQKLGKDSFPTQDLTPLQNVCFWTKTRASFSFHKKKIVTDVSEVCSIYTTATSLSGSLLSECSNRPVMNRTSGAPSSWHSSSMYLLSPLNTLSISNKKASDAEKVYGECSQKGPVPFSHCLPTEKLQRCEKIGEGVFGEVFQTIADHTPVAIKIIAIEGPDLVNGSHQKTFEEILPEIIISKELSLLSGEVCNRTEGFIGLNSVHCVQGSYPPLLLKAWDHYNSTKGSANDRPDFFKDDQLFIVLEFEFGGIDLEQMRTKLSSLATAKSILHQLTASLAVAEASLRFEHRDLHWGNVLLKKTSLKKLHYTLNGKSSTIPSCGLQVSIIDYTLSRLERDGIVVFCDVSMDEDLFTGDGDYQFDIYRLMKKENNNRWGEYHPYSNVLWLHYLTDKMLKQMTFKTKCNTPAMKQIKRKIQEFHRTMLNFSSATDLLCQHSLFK
It is filed as cell-based. The following applies: U2OS, dose 0.5 µM, time 18.0 hrs.

As for `CCn1ncc2cc3cnccc3c(N)c21`, the Ratio IC50 in test [1] was 4.
`Brc1c[nH]c2cc3cnccc3cc12`: the Ratio IC50 in the test listed under Homo sapiens amounted to 5.4.
Turning to `Ic1c[nH]c2cc3cnccc3cc12`, the Ratio IC50 in test [1] stood at 5.
Consider `CCCNc1ccc2ncc(-c3ccc4[nH]ncc4c3)n2n1`, for which the inhibition entry in test [2] is “Active”.
